Results published in patent US20110224148A1, “CARBOHYDRATE-POLYAMINO ACID-DRUG CONJUGATES” (priority 2010, published 2011).

Test system: normal human plasma
Conditions: composition in saline at 5 mg/mL or 10 mg/mL; 30 μL added to 120 μL normal human plasma; STart 4 Coagulation Analyzer

## glucosamine-PGGA-paclitaxel composition [Example 1]
  clotting time (APTT test, FIG. 3): 50 to 60 s
